According to patent US20250057859A1, “CANNABICHROMENEQUINONE AND ANALOGUES THEREOF, AND METHOD OF USING COMPOSITIONS THEREOF AS ANTI-INFLAMMATORY AGENTS” (Juva Life, Inc., priority 2021, published 2025):
“Also recorded” adds a separate entry of the source.

Sequences of proteins named here, by UniProt entry; tags and fusion partners are left off.
UniProt P34972, whole entry: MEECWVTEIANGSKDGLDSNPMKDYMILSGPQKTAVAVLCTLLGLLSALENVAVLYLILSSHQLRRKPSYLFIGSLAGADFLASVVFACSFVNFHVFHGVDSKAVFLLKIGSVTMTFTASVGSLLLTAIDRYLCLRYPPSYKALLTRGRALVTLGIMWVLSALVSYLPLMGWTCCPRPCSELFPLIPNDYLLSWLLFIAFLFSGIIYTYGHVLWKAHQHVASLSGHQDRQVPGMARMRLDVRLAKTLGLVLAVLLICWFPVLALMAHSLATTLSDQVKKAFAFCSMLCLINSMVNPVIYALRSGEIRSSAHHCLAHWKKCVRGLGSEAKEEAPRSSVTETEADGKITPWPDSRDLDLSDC

Legend:
[1] = system: SK-MEL-28 melanoma cell line; assay: SK-MEL-28 cell line toxicity (Cell titer Glo viability); type: cell-based
Experimental: (§1) Culture medium were purchased from ATCC, USA.
(§2) 90 nL DMSO is added to control wells. […] Luminescence was then recorded using Synergy Neo2Multi-mode Reader.

[2] = system: PC3 prostate adenocarcinoma cell line; assay: PC3 cell line toxicity (Cell titer Glo viability); type: cell-based
Experimental: as §2, §1

[3] = system: HL-60 acute promyelocytic leukemia cell line
Experimental: The half maximal inhibition concentration (IC50) for each compound was determined by harvesting cells during the logarithmic growth period and then counting cell number using hemocytometer. […] Then, using a Biomek FX, test articles were serially diluted (10 mM top, 3× dilution intervals) along with a reference inhibitor (1 mM top, 3× dilution intervals) in acoustic grade Labcyte plate. Then, using an acoustic dispenser (Labcyte550), compounds were added as serially diluted to plate with cells: 90 nL of serially diluted compounds per well. 90 nL DMSO is added to control wells. Test plates were incubated for 72 h in the humidified incubator at 37° C. with 5% CO2. 25 μL of reconstituted Cell titer Glo reagent was added to each well. Each test plate was then incubated for 20 min at room temperature. Luminescence was then recorded using Synergy Neo2Multi-mode Reader.
(§3) In order to calculate intersect IC50, a dose-response curve was fitted using nonlinear regression model with a sigmoidal dose response.
The formula for calculating surviving rate is shown below, and the intersect IC50 was calculated according to the dose-response curve generated by the software:
The compounds of interest were assessed cell viability in the HL-60 acute promyelocytic leukemia cell line (ATCC® CCL-240). […] Culture medium were purchased from ATCC, USA.

[4] = system: PANC-1 pancreatic carcinoma cell line; assay: PANC-1 cell line toxicity (Cell titer Glo viability)
Experimental: The half maximal inhibition concentration (IC50) for each compound was determined by harvesting cells during the logarithmic growth period and then counting cell number using hemocytometer. The cell concentrations were adjusted to 5×10^4 cells/mL with respective culture medium. 30 μL of cell suspensions were added to three 384-well plates with the final cell density of 1.5×10^3 cells/well. Then, using a Biomek FX, test articles were serially diluted (10 mM top, 3× dilution intervals) along with a reference inhibitor (1 mM top, 3× dilution intervals) in acoustic grade Labcyte plate. Then, using an acoustic dispenser (Labcyte550), compounds were added as serially diluted to plate with cells: 90 nL of serially diluted compounds per well. 90 nL DMSO is added to control wells. Test plates were incubated for 72 h in the humidified incubator at 37° C. with 5% CO2. 25 μL of reconstituted Cell titer Glo reagent was added to each well. Each test plate was then incubated for 20 min at room temperature. Luminescence was then recorded using Synergy Neo2Multi-mode Reader.
as §3
The formula for calculating surviving rate is shown below, and the intersect IC50 was calculated according to the dose-response curve generated by the software: […]

[5] = molecular target: T1, cannabinoid receptor 2 (CNR2) (Homo sapiens, UniProt P34972); assay: CB2 receptor agonist assay (cAMP Hunter eXpress, CNR2 CHO-K1); type: cell-based
T1 construct: host or cells: CHO-K1
Experimental: The assays were performed in cAMP Hunter eXpress cells engineered to overexpress naturally Gi/Go-coupled wildtype cannabinoid receptor 1 (CNR1) or cannabinoid receptor 2 (CNR2) in CHO-K1 cell type. In these cells, CB1 and/or CB2 agonists inhibit production of intracellular cAMP in response to stimulation with Forskolin. cAMP levels are determined using luminogenic detection reagents provided with the Hunter eXpress cAMP detection kit.
• Assay ready CNR1 CHO-K1 cells were obtained from Eurofins/Discover X, cat #95-0071E2 • Assay ready CNR2 CHO-K1 cells were obtained from Eurofins/Discover X, cat #95-0183E2 • Hunter eXpress cAMP detection kit was also from Discover X. The kit includes all cAMP detection reagents, Forskolin, complete cell plating medium and cell assay buffer.
The Assay-Ready CNR1 CHO-K1 or CNR2 CHO-K1 cells were thawed and re-suspended in pre-warmed Assay Complete plating medium and inoculated into 96well plate at a density of 30,000 cells in 100 μL. The plates with cells were incubated for 24 h at 37° C. in 5% CO2. […] The cells were stimulated with the Forskolin/compound buffer for 30 min. […] The plate was read on Biotek Synergy Neo2 reader in luminescent mode. […] Relative luminescence units (RLUs) were plotted against compound concentration to determine apparent EC50 values of the agonist compounds.

CCCCCC1=CC(=O)C2=C(OC(C)(CCC=C(C)C)C=C2)C1=O (stereo not drawn) [Formula II]
fold higher tolerance than staurosporine [1]: more than 250 fold
fold higher tolerance than staurosporine [2]: more than 10,000 fold
fold higher tolerance than staurosporine [3]: more than 200 fold
fold higher tolerance than staurosporine [4]: more than 750 fold
selectivity for CB2 receptor activation over CB1, in words ([5]; agonist): good selectivity; also recorded: high potency and selectivity
Selectivity for CB2 over CB1 ([5]; ratio of EC50 values): >80 fold
